# Results as given in ChEMBL document CHEMBL3351383, “Combination of chiral linkers with thiophenecarboximidamide heads to improve the selectivity of inhibitors of neuronal nitric oxide synthase” (Bioorg Med Chem Lett, 2014).
# How the values were obtained:
# [1] = Selectivity index, ratio of Ki for bovine eNOS to KI for rat nNOS
# [2] = Selectivity index, ratio of Ki for mouse macrophage iNOS to KI for rat nNOS
smiles,measurement,setting,value
N=C(Nc1cccc(OC[C@@H]2C[C@@H](Oc3cccc(NC(=N)c4cccs4)c3)CN2)c1)c1cccs1,Ratio Ki,[1],119
same,Ratio Ki,[2],86
